From patent publication US20080085860A1 (Eli Lilly, published 2008)

Biological target: T1, Rat VPAC2 receptor (rat, UniProt P35000 23-437)
T1 sequence (looked up): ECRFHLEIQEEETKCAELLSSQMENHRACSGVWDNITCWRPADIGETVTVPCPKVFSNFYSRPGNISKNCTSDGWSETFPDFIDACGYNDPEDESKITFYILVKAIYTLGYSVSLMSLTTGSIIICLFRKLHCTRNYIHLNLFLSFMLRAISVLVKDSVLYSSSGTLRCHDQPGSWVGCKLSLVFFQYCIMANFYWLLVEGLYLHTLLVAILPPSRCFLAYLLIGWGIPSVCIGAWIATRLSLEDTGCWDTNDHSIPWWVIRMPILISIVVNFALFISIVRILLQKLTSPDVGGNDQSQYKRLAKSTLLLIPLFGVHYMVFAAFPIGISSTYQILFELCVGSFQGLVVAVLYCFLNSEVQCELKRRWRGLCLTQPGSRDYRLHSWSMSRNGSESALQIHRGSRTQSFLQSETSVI
Experiment: cell-based or functional assay

B1: VIP (vasoactive intestinal peptide) (SEQ ID NO: 1) (peptide)
peptide: HSDAVFTDNYTRLRKQMAVKKYLNSILN
EC50 (nm), in vitro potency using DiscoveRx (cAMP): 0.79 nM
